ChEMBL document CHEMBL4325854, “Synthetic small molecules as anti-biofilm agents in the struggle against antibiotic resistance” (Eur J Med Chem, 2019)

Target: Fucose-binding lectin PA-IIL (Pseudomonas aeruginosa (strain ATCC 15692 / DSM 22644 / CIP 104116 / JCM14847 / LMG 12228 / 1C / PRS 101 / PAO1)) (UniProt Q9HYN5)

## COc1ccc(/C=C/C(=O)NC[C@H]2O[C@H](OC)[C@@H](O)[C@@H](O)[C@@H]2O)cc1OC
  T1/2: 8.8 min
